{
  "source": "patent US20130078284A1",
  "about": "“PHARMACEUTICAL FORMULATIONS” (priority 2005, published 2013)",
  "conditions": "human, in vivo; for CL/F (maximum) / CL/F (mean ± SD) / CL/F (minimum): 130 mg; for AUCt (maximum) / AUCt (mean ± SD) / AUCt (minimum) / AUC∞ (maximum) / AUC∞ (mean ± SD) / AUC∞ (minimum) / Cmax (maximum) / Cmax (mean ± SD) / Cmax (minimum) / Tmax (maximum) / Tmax (mean ± SD) / Tmax (minimum) / t1/2 (harmonic mean, with pseudo-standard deviation where printed) / t1/2 (maximum) / t1/2 (minimum): 135 mg",
  "data": [
    {"substance": "2-[4-(4-chlorobenzoyl)phenoxy]-2-methyl-propanoic acid Choline salt [Formulation 5]", "values": [
      {"measurement": "CL/F (maximum)", "value": 1.65, "unit": "L/h"},
      {"measurement": "CL/F (mean ± SD)", "value": "0.95 ± 0.29", "unit": "L/h"},
      {"measurement": "CL/F (minimum)", "value": 0.55, "unit": "L/h"},
      {"measurement": "AUCt (maximum)", "value": 224.7, "unit": "µg·h/mL"},
      {"measurement": "AUCt (mean ± SD)", "value": "143.5 ± 41.1", "unit": "µg·h/mL"},
      {"measurement": "AUCt (minimum)", "value": 77.9, "unit": "µg·h/mL"},
      {"measurement": "AUC∞ (maximum)", "value": 238.4, "unit": "µg·h/mL"},
      {"measurement": "AUC∞ (mean ± SD)", "value": "148.4 ± 44.5", "unit": "µg·h/mL"},
      {"measurement": "AUC∞ (minimum)", "value": 78.8, "unit": "µg·h/mL"},
      {"measurement": "Cmax (maximum)", "value": 8010, "unit": "ng/mL"},
      {"measurement": "Cmax (mean ± SD)", "value": "6400 ± 930", "unit": "ng/mL"},
      {"measurement": "Cmax (minimum)", "value": 4600, "unit": "ng/mL"},
      {"measurement": "Tmax (maximum)", "value": 10.0, "unit": "h"},
      {"measurement": "Tmax (mean ± SD)", "value": "5.0 ± 2.1", "unit": "h"},
      {"measurement": "Tmax (minimum)", "value": 3.0, "unit": "h"},
      {"measurement": "t1/2 (harmonic mean, with pseudo-standard deviation where printed)", "value": "21.34 ± 7.36", "unit": "h"},
      {"measurement": "t1/2 (maximum)", "value": 34.83, "unit": "h"},
      {"measurement": "t1/2 (minimum)", "value": 11.98, "unit": "h"}
    ]},
    {"substance": "2-[4-(4-chlorobenzoyl)phenoxy]-2-methyl-propanoic acid Choline salt [Formulation 6]", "values": [
      {"measurement": "CL/F (maximum)", "value": 1.99, "unit": "L/h"},
      {"measurement": "CL/F (mean ± SD)", "value": "1.29 ± 0.38", "unit": "L/h"},
      {"measurement": "CL/F (minimum)", "value": 0.75, "unit": "L/h"},
      {"measurement": "AUCt (maximum)", "value": 170.6, "unit": "µg·h/mL"},
      {"measurement": "AUCt (mean ± SD)", "value": "108.4 ± 34.0", "unit": "µg·h/mL"},
      {"measurement": "AUCt (minimum)", "value": 64.6, "unit": "µg·h/mL"},
      {"measurement": "AUC∞ (maximum)", "value": 174.2, "unit": "µg·h/mL"},
      {"measurement": "AUC∞ (mean ± SD)", "value": "110.4 ± 34.9", "unit": "µg·h/mL"},
      {"measurement": "AUC∞ (minimum)", "value": 65.4, "unit": "µg·h/mL"},
      {"measurement": "Cmax (maximum)", "value": 8430, "unit": "ng/mL"},
      {"measurement": "Cmax (mean ± SD)", "value": "4030 ± 1460", "unit": "ng/mL"},
      {"measurement": "Cmax (minimum)", "value": 1960, "unit": "ng/mL"},
      {"measurement": "Tmax (maximum)", "value": 18.0, "unit": "h"},
      {"measurement": "Tmax (mean ± SD)", "value": "7.9 ± 3.3", "unit": "h"},
      {"measurement": "Tmax (minimum)", "value": 4.0, "unit": "h"},
      {"measurement": "t1/2 (harmonic mean, with pseudo-standard deviation where printed)", "value": "18.71 ± 5.14", "unit": "h"},
      {"measurement": "t1/2 (maximum)", "value": 25.01, "unit": "h"},
      {"measurement": "t1/2 (minimum)", "value": 9.71, "unit": "h"}
    ]}
  ]
}
